Laboratory results: PubChem BioAssay AID602250 (The Scripps Research Institute Molecular Screening Center, 2012)
Only a part is listed here, and it is no random draw. Some structures show a salt or complex split into parts, the way the source records it. The source made the active and inactive calls.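 How the source made its calls: active means inhibition above a per-plate cutoff, the plate's mean sample inhibition plus 3 SD (cut at about 24% in these data); inactive means the rest.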

Assay: calcium signal blockers in parental CHO-K1 cells – cell-based, Fluo-8 calcium fluorescence, full deck, 1536-well, counter-screen for M1 antagonist project, primary screen (AID 602250);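 further: 0% = DMSO plus EC80 ATP and 100% = DMSO alone without ATP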
Conditions: ATP-induced calcium, Fluo-8 fluorescence, at 3 µM, active compounds read high

Compound	inhibition
CCOC(=O)C(CC)C1=NC(C)(C)Cc2ccccc21.O=[N+]([O-])c1cc([N+](=O)[O-])c(O)c([N+](=O)[O-])c1 (centres undefined)	inactive: -3.87%
O=[N+]([O-])c1cc([N+](=O)[O-])c(Nc2nnnn2CCO)c([N+](=O)[O-])c1	inactive: -7.14%
CC1=C2N=C(C=C3N=C(C(C)=C4[N-][C@@](C)([C@@H]5N=C1[C@](C)(CCC(=O)NC[C@@H](C)OP(=O)([O-])O[C@H]1[C@@H](O)[C@@H](n6cnc7cc(C)c(C)cc76)O[C@@H]1CO)[C@H]5CC(N)=O)[C@@](C)(CC(N)=O)[C@@H]4CCC(N)=O)[C@@](C)(CC(N)=O)[C@@H]3CCC(N)=O)C(C)(C)[C@@H]2CCC(N)=O.[C-]#N.[Co+3]	inactive: -3.28%
CN(C)C1(CNC(=O)c2ccc(S(C)(=O)=O)cc2)CCCCC1	inactive: -10.3%
COc1ccc(-c2ccccn2)cc1.O=[N+]([O-])c1cc([N+](=O)[O-])c(O)c([N+](=O)[O-])c1	inactive: -19.1%
CP(=O)(Nc1ccc(SC(F)(F)F)cc1)Oc1ccccc1 (centres undefined)	inactive: -2.3%
CCCOc1ccc(NP(C)(=O)Oc2ccc(Cl)cc2)cc1 (centres undefined)	inactive: -4.6%
CN1CCCCC1COC(=O)C1(O)c2ccccc2CCc2ccccc21 (centres undefined)	inactive: -8.13%
COc1ccccc1OP(C)(=O)Nc1c(C)cccc1C (centres undefined)	inactive: -16%
CN(Cc1cccnc1)C(=O)COc1ccc(Cl)c(Cl)c1.O=[N+]([O-])c1cc([N+](=O)[O-])c(O)c([N+](=O)[O-])c1	inactive: -7.19%
O=[N+]([O-])c1cc([N+](=O)[O-])c(-n2nnc3ccccc32)c([N+](=O)[O-])c1	inactive: 1.25%
Cc1nc2ccc3ccccc3c2s1.O=[N+]([O-])c1cc([N+](=O)[O-])c(O)c([N+](=O)[O-])c1	inactive: -11.9%
O=[N+]([O-])c1cc([N+](=O)[O-])c(-c2cnn(-c3ccccc3)c2)c([N+](=O)[O-])c1	inactive: 6.14%
CCOC(=O)c1ccc(NP(C)(=O)Oc2cc(C)cc(C)c2)cc1 (centres undefined)	inactive: 17.4%
Cc1cc(C)cc(OP(C)(=O)Nc2ccc(C)cc2C)c1 (centres undefined)	inactive: -15.6%
COc1ccccc1OP(C)(=O)Nc1cccc(Br)c1 (centres undefined)	inactive: -10.2%
COc1cc(C(=O)NCC2(N3CCOCC3)CCCCC2)cc(Cl)c1OC(C)C	inactive: 5.14%
Cc1ccc(C)c(NP(C)(=O)Oc2ccccc2)c1 (centres undefined)	inactive: 2.57%
CP(=O)(Nc1cccc(Br)c1)Oc1ccccc1 (centres undefined)	inactive: -17.4%
Cc1cc(C)cc(OP(C)(=O)Nc2ccccn2)c1 (centres undefined)	inactive: 5.83%
O=C(O)c1cccc(Nc2c([N+](=O)[O-])cc([N+](=O)[O-])cc2[N+](=O)[O-])c1	inactive: -16.4%
CC1=NCCc2c1[nH]c1ccccc21.O=[N+]([O-])c1cc([N+](=O)[O-])c(O)c([N+](=O)[O-])c1	inactive: -12.8%
O=[N+]([O-])c1ccc2c(c1)C=Nc1ccccc1O2	inactive: 15%
Cc1cccc(C)c1OP(C)(N)=O (centres undefined)	inactive: -0.64%
CC(C)(C)c1ccc(OP(C)(=O)Nc2ccc(SC(F)(F)F)cc2)cc1 (centres undefined)	inactive: -4.2%
COc1cc(C(=O)NCC2(N3CCOCC3)CCCCC2)ccc1OCC(C)C	inactive: -8.18%

Compound	inhibition
O=[N+]([O-])c1cc([N+](=O)[O-])c(Nc2cccnc2)c([N+](=O)[O-])c1	inactive: 3.2%
Cc1cc(C)cc(OP(C)(N)=O)c1 (centres undefined)	inactive: -4.81%
COc1ccc(OP(C)(=O)Nc2cccc(F)c2)cc1 (centres undefined)	inactive: 2.87%
COc1ccccc1OP(C)(=O)Nc1cc(Cl)ccc1C (centres undefined)	inactive: -6.88%
Cc1ccc(NP(C)(=O)Oc2ccccc2)c(C)c1 (centres undefined)	inactive: -16.6%
COc1ccccc1OP(C)(=O)Nc1ccc(C)cc1 (centres undefined)	inactive: -8.38%
CCOC(=O)c1ccc(NP(C)(=O)Oc2ccccc2)cc1 (centres undefined)	inactive: -6.96%
CCN(CC)CCCOC(=O)C(O)(c1ccccc1)c1ccccc1	inactive: 5.42%
COc1ccccc1-c1ccccn1.O=[N+]([O-])c1cc([N+](=O)[O-])c(O)c([N+](=O)[O-])c1	inactive: -3.61%
Cc1cc(C)cc(OP(C)(=O)Nc2ccc(SC(F)(F)F)cc2)c1 (centres undefined)	inactive: 5.61%
CCc1ccc(OP(C)(=O)N2CCN(c3ccc([N+](=O)[O-])cc3)CC2)cc1 (centres undefined)	inactive: -7.54%
CP(=O)(NC(=O)Nc1ccccc1)Oc1ccccc1 (centres undefined)	inactive: 12.9%
CP(=O)(Oc1ccccc1)OC(c1ccccc1)C(F)(F)F (centres undefined)	inactive: 0.3%
CP(=O)(Nc1ccc(SC(F)(F)F)cc1)Oc1ccc(Cl)cc1 (centres undefined)	inactive: 0.12%
Cc1ccc(Nc2c([N+](=O)[O-])cc([N+](=O)[O-])cc2[N+](=O)[O-])cc1	inactive: 0.08%
Cc1cccc(C)c1OP(C)(=O)Nc1ccc(SC(F)(F)F)cc1 (centres undefined)	inactive: -2.96%
CP(=O)(Nc1ccccn1)Oc1ccc(Cl)cc1 (centres undefined)	inactive: -12.2%
O=[N+]([O-])c1cc([N+](=O)[O-])c(O)c([N+](=O)[O-])c1.c1ccc(Oc2ccncc2)cc1	inactive: -4.27%
CCOC(=O)c1ccc(NP(C)(=O)Oc2ccc(OC)cc2)cc1 (centres undefined)	inactive: -2.52%
CCOP(C)(=S)SCC(=O)NC(C)C(=O)O (centres undefined)	inactive: -9.58%
CCCCOc1ccc(C(=O)NCC2(N3CCCCC3)CCCCC2)cc1OC	inactive: -15.8%
CP(=O)(Nc1ccccc1Br)Oc1ccccc1 (centres undefined)	inactive: -7.19%
COc1ccccc1OP(C)(=O)Nc1ccccc1 (centres undefined)	inactive: 4.04%
CP(=S)(Nn1cnnc1)Oc1ccccc1 (centres undefined)	inactive: -9.36%
CCOC(=O)c1ccc(NP(C)(=O)Oc2ccc(Cl)cc2)cc1 (centres undefined)	inactive: -6.47%
CP(=O)(OC12CC3CC(CC(C3)C1)C2)OC12CC3CC(CC(C3)C1)C2	inactive: -0.43%

Compound	inhibition
O=C(OCCCN1CCCC1)C(O)(c1ccccc1)C1CCCCC1 (centres undefined)	inactive: -2.38%
COc1ccccc1OP(C)(=O)Nc1c(C)n(C)n(-c2ccccc2)c1=O (centres undefined)	inactive: -8.95%
CCc1ccc(OP(C)(=O)Nc2cccnc2)cc1 (centres undefined)	inactive: -5.74%
CP(=O)(Oc1ccccc1)N1CCOC1=O (centres undefined)	inactive: -14.2%
COc1ccc(OP(C)(=O)Nc2ccc(Br)cc2)cc1 (centres undefined)	inactive: -0.01%
CCN(CC)CC(O)COC(=O)C(O)(c1ccccc1)C1CCCCC1 (centres undefined)	inactive: -17.4%
CN(C)C(=O)c1c([N+](=O)[O-])cc([N+](=O)[O-])cc1[N+](=O)[O-]	inactive: -11.8%
CC(C)(C)c1ccc(OP(C)(=O)O)cc1	inactive: -3.56%
COc1ccccc1OP(C)(=O)Nc1ccccc1Br (centres undefined)	inactive: -3.95%
CP(=O)(Nc1ccc(Cl)cc1)Oc1ccc(F)cc1 (centres undefined)	inactive: -15.4%
COc1ccc(OP(C)(=O)Nc2ccccn2)cc1 (centres undefined)	inactive: -22.5%
CN(C)CCOC(=O)C(O)(c1ccccc1)C1CCCC1 (centres undefined)	inactive: -5.07%
COc1ccccc1OP(C)(=O)Nc1ccc(Br)cc1 (centres undefined)	inactive: -14.2%
COc1ccccc1OP(C)(=O)Nc1ccc(C)cc1C (centres undefined)	inactive: 4.25%
CP(=O)(Nc1ccccn1)Oc1ccccc1 (centres undefined)	inactive: -5.53%
CCc1ccc(OP(C)(=O)O)cc1	inactive: 15%
O=[N+]([O-])c1cc([N+](=O)[O-])c(Nc2ccccn2)c([N+](=O)[O-])c1	inactive: -10.6%
Cc1c(NP(C)(=O)Oc2ccc(C(C)C)cc2)c(=O)n(-c2ccccc2)n1C (centres undefined)	inactive: -9.2%
COc1ccccc1OP(C)(=O)Nc1ccc(C)c(C)c1 (centres undefined)	inactive: 9.08%
COc1ccc(OP(C)(=O)Nc2ccccc2Br)cc1 (centres undefined)	inactive: -16.4%
Cc1cc(C)cc(OP(C)(=O)Nc2cccc(C(F)(F)F)c2)c1 (centres undefined)	inactive: -5.16%
O=C1C(O)=C([N+](=O)[O-])C(=O)C(O)=C1[N+](=O)[O-]	inactive: -12.5%
CP(=O)(OCCOc1ccccc1)OCCOc1ccccc1	inactive: -7.66%
CCCCCCCCCCCCCCCC1C[N+](C)(C)CCOP(C)(=O)O1 (centres undefined)	inactive: -16.5%
CP(=O)(Nc1ccc(Cl)cc1Cl)Oc1ccccc1 (centres undefined)	inactive: -13.2%
CCOC(=O)c1ccc(NP(C)(=O)Oc2ccc(F)cc2)cc1 (centres undefined)	inactive: -7.9%

Compound	inhibition
COc1ccc(OP(C)(=O)Nc2ccc(SC(F)(F)F)cc2)cc1 (centres undefined)	inactive: -12%
CCN(CC)CCCNc1ccccc1[N+](=O)[O-].O=[N+]([O-])c1cc([N+](=O)[O-])c(O)c([N+](=O)[O-])c1	inactive: -11.9%
CP(=O)(Nc1ccccc1)Oc1ccc(F)cc1 (centres undefined)	inactive: -29.3%
CCCCCOc1ccc(NP(C)(=O)Oc2ccc(Cl)cc2Cl)cc1 (centres undefined)	inactive: -3.17%
O=[N+]([O-])c1cc([N+](=O)[O-])c(OC2CCCCC2O)c([N+](=O)[O-])c1 (centres undefined)	inactive: -6.3%
Cc1c([N+](=O)[O-])cc([N+](=O)[O-])c(Br)c1[N+](=O)[O-]	inactive: -13.1%
CCN(CC)CCCOC(=O)C(O)(c1ccccc1)C1CCCCC1 (centres undefined)	inactive: -8.48%
CP(=O)(Nc1ccccc1F)Oc1ccccc1 (centres undefined)	inactive: -22.3%
CC(C)c1ccc(OP(C)(=O)Nc2ccc(SC(F)(F)F)cc2)cc1 (centres undefined)	inactive: -2.4%
O=[N+]([O-])c1cc([N+](=O)[O-])c(Nc2ccc(Cl)cc2)c([N+](=O)[O-])c1	active: 23.9%
COc1ccc2c(c1O)-c1c(O)c(OC)cc3c1[C@H](C2)[N+](C)(C)CC3.O=[N+]([O-])c1cc([N+](=O)[O-])c([O-])c([N+](=O)[O-])c1[O-]	inactive: -12.2%
O=C(OC1CN2CCC1CC2)c1ccc([N+](=O)[O-])cc1 (centres undefined)	inactive: -16.1%
O=C(OCCN1CCN(CCOCc2ccccc2)CC1)C(O)(c1ccccc1)c1ccccc1	inactive: -6.41%
CCOP(C)(=S)SCC(=O)NC(C)(CC)C(=O)O (centres undefined)	inactive: -8.62%
CP(=O)(Nc1ccc(SC(F)(F)F)cc1)Oc1ccc(F)cc1 (centres undefined)	inactive: -15%
Cc1ccccc1NP(C)(=O)Nc1ccccc1C	inactive: 0.27%
O=[N+]([O-])c1cc([N+](=O)[O-])c(C(F)(F)F)c([N+](=O)[O-])c1O	inactive: -12.6%
CP(=O)(Nc1ccc2c(c1)OCCO2)Oc1ccccc1 (centres undefined)	inactive: -8.02%
CN(C)CCOC(=O)C(O)(c1ccccc1)C1CCCCC1 (centres undefined)	inactive: 2.41%
COc1ccc(NP(C)(=O)Oc2ccccc2OC)cc1 (centres undefined)	inactive: 4.26%
COc1ccc(OP(C)(=O)Nc2cccc(Br)c2)cc1 (centres undefined)	inactive: 23.3%
CN(C)C1(CNC(=O)c2ccc(Cl)c(S(N)(=O)=O)c2)CCCCC1	inactive: -11.5%
Cc1c(C(c2ccc3c(c2)OCO3)c2c(C)n(C)n(-c3ccccc3)c2=O)c(=O)n(-c2ccccc2)n1C.O=[N+]([O-])c1cc([N+](=O)[O-])c(O)c([N+](=O)[O-])c1	inactive: -22.8%
O=[N+]([O-])c1ccc(OP2(=O)COCCO2)cc1 (centres undefined)	inactive: -24.8%
Cc1cc(-c2cccc3ccccc23)c(C)cn1.O=[N+]([O-])c1cc([N+](=O)[O-])c(O)c([N+](=O)[O-])c1	inactive: -9.52%
O=[N+]([O-])c1cc([N+](=O)[O-])c(NCC2CCS(=O)(=O)C2)c([N+](=O)[O-])c1 (centres undefined)	inactive: -12.6%
